This note sets out measurements from ChEMBL document CHEMBL1122861, “Synthesis and activity profiles of novel cyclic opioid peptide monomers and dimers” (J Med Chem, 1985).

The chains behind the UniProt entries cited, without tags or fusion partners.
UniProt P33535, whole entry, looked up: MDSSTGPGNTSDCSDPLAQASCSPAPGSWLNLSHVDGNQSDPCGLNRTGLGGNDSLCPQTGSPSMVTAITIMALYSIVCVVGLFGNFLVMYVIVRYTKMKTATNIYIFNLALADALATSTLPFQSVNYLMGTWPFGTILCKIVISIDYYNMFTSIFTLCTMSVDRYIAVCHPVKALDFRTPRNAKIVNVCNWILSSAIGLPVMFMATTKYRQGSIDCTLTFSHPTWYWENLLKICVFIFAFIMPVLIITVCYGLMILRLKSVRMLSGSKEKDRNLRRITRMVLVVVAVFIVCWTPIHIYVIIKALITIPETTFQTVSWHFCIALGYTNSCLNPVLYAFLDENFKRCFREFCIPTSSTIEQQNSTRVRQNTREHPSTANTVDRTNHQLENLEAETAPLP
UniProt P33533, whole entry, looked up: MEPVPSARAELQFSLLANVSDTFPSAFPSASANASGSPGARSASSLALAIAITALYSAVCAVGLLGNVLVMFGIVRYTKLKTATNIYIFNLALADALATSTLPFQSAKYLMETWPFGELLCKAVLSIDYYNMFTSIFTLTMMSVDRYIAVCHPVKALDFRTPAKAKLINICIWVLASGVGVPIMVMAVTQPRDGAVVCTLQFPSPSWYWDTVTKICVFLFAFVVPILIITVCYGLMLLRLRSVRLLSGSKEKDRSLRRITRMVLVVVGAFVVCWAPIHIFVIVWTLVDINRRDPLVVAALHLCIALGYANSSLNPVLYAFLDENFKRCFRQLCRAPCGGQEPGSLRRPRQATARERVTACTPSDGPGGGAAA

The target of test [1] is Mu-type opioid receptor (Rattus norvegicus) (UniProt P33535). In words: Potency ratio was evaluated for mu receptor binding.
The nature of test [2]: Ratio of IC50 value using MVD to that of GPI assays.
Test [3] addresses Opioid receptors; mu & delta (Rattus norvegicus) (UniProt P33533+P33535). The test is described as follows: Ratio of Ki value towards delta receptor to that of mu receptor.
Test [4] in a line: Relative potency was determined between the GPI assay and the [3H]DAGO binding assay.
Test [5] has as its target Delta-type opioid receptor (Rattus norvegicus) (UniProt P33533). In words: Potency ratio was evaluated for delta receptor binding.
Test [6] in a line: Relative potency was determined between the MVD assay and the [3H]DSLET binding assay.

Regarding `NC(=O)[C@@H]1CCC(=O)NCCC[C@H](NC(=O)[C@@H](N)Cc2ccc(O)cc2)C(=O)NCC(=O)N1`, the Potency ratio in test [1] stood at 0.0053; in test [5] it was 0.00058. In addition, in test [2], the Ratio was more than 4.57. Further, the Selectivity in test [3] was 2.83. Further, the figures for the Relative potency in test [4] and in test [6] were 0.0281 and less than 0.000285, respectively.
Consider `NC(=O)[C@@H]1CCC(=O)NCCCC[C@H](NC(=O)[C@@H](N)Cc2ccc(O)cc2)C(=O)N[C@@H](Cc2ccccc2)C(=O)N1`, for which the results for the Potency ratio in test [1] and in test [5] were 6.58 and 0.581, respectively. Also, the Ratio in test [2] came out at 1.78. Also, the Selectivity in test [3] was 3.05. The Relative potency is 84 in test [4] and 2.19 in test [6].
In the case of `CC(C)C[C@H](NC(=O)[C@H](Cc1ccccc1)NC(=O)CNC(=O)CNC(=O)[C@@H](N)Cc1ccc(O)cc1)C(=O)O`, the Relative potency in test [4] and in test [6] was 1 each time.
In the case of `CC(C)C[C@@H]1NC(=O)[C@@H](NC(=O)[C@@H](N)Cc2ccc(O)cc2)CCCNC(=O)C[C@@H](C(N)=O)NC1=O`, the Potency ratio in test [1] stood at 0.00138; in test [5], 0.000225. For the same compound, the Ratio in test [2] is 7.47. Moreover, the Selectivity in test [3] was determined as 1.2. Moreover, the Relative potency stood at 0.0455 in test [4] and 0.000282 in test [6].
As for `NC(=O)[C@@H]1CCCCNC(=O)CC[C@H](NC(=O)[C@@H](N)Cc2ccc(O)cc2)C(=O)N[C@@H](Cc2ccccc2)C(=O)N1`, the Potency ratio came to 9.51 in test [1] and 0.0513 in test [5]. The Ratio in test [2] amounted to 12.6. The Selectivity in test [3] stood at 49.6. Also, the Relative potency in test [4] was 30.8; in test [6], 0.113.
`NC(=O)[C@@H]1CC(=O)NCCC[C@H](NC(=O)[C@@H](N)Cc2ccc(O)cc2)C(=O)N[C@@H](Cc2ccccc2)C(=O)N[C@H](C(N)=O)CC(=O)NCCC[C@H](NC(=O)[C@@H](N)Cc2ccc(O)cc2)C(=O)N[C@@H](Cc2ccccc2)C(=O)N1`: the Potency ratio in test [1] worked out at 0.368; in test [5] it was 0.06. The Ratio in test [2] was 0.893. Moreover, in test [3], the Selectivity worked out at 1.65. Moreover, the Relative potency was 2.21 in test [4] and 0.115 in test [6].
`NC(=O)[C@@H]1CCCNC(=O)C[C@H](NC(=O)[C@@H](N)Cc2ccc(O)cc2)C(=O)N[C@@H](Cc2ccccc2)C(=O)N[C@H](C(N)=O)CCCNC(=O)C[C@H](NC(=O)[C@@H](N)Cc2ccc(O)cc2)C(=O)N[C@@H](Cc2ccccc2)C(=O)N1`: the Potency ratio in test [1] amounted to 0.11; in test [5], 0.0196. Further, the Ratio in test [2] turned out to be 0.499. Besides, the Selectivity in test [3] came out at 1.5. In addition, the Relative potency in test [4] stood at 0.212; in test [6] it was 0.0197.
As to `NC(=O)[C@@H]1CCCNC(=O)C[C@H](NC(=O)[C@@H](N)Cc2ccc(O)cc2)C(=O)N[C@@H](Cc2ccccc2)C(=O)N1`, the figures for the Potency ratio in test [1] and in test [5] were 0.985 and 0.00192, respectively. In test [2], the Ratio worked out at 16.4. The Selectivity in test [3] was 137. The figures for the Relative potency in test [4] and in test [6] were 0.471 and 0.00133, respectively.
In the case of `CC(C)[C@H](NC(=O)[C@H](Cc1ccccc1)NC(=O)[C@H](CC(N)=O)NC(=O)[C@@H](N)Cc1ccc(O)cc1)C(N)=O`, the Potency ratio in test [1] amounted to 0.22; in test [5], 0.00092. Also, the Ratio in test [2] is more than 38.6. Moreover, in test [3], the Selectivity was found to be 64.3. The Relative potency in test [4] was 0.416; in test [6], less than 0.0005.
Consider `CCC[C@H](NC(=O)[C@@H](N)Cc1ccccc1)C(=O)N[C@@H](Cc1ccccc1)C(=O)N[C@@H](CC(N)=O)C(N)=O`, for which the Potency ratio in test [1] is 0.8; in test [5], 0.00574. The Ratio in test [2] was found to be 12.2. In test [3], the Selectivity was 37.7. The results for the Relative potency in test [4] and in test [6] were 1.36 and 0.00516, respectively.
